Earlier results on one molecule are cited in patent US8242178B2, “Use of cannabidiol in the treatment of autoimmune hepatitis” (University of South Carolina, priority 2007, dated 2012).

The chains behind the UniProt entries cited, without tags or fusion partners.
UniProt P34972, whole entry: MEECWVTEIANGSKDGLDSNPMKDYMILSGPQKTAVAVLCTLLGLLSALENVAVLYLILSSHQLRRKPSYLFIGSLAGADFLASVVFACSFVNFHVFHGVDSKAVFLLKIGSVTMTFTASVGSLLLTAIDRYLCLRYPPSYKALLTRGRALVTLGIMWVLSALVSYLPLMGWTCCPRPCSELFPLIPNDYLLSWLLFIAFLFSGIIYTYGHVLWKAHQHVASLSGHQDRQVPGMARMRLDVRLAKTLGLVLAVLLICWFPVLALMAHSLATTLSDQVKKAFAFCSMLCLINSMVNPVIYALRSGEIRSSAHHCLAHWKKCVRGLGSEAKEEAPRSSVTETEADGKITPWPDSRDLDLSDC

The target in the data set is CB2 (Homo sapiens, UniProt P34972). The note with it: read-out: affinity for CB2 receptors (Ki); found by other investigators; cited from earlier work.

As usually defined, the Ki is a measure of affinity in units of concentration, obtained from inhibition or displacement. With `C=C(C)[C@@H]1CCC(C)=C[C@H]1c1c(O)cc(CCCCC)cc1O` [CBD, cannabidiol], the Ki was 96.3 nM.
